The text below walks through data of patent US20160296499A1, “Spiroindoline Antiparasitic Derivatives” (ZOETIS SERVICES LLC, priority 2013, published 2016).

By UniProt entry, the sequences of proteins in these tests, tags left out. Residues count along the entry.
UniProt E1BK36, 1-524: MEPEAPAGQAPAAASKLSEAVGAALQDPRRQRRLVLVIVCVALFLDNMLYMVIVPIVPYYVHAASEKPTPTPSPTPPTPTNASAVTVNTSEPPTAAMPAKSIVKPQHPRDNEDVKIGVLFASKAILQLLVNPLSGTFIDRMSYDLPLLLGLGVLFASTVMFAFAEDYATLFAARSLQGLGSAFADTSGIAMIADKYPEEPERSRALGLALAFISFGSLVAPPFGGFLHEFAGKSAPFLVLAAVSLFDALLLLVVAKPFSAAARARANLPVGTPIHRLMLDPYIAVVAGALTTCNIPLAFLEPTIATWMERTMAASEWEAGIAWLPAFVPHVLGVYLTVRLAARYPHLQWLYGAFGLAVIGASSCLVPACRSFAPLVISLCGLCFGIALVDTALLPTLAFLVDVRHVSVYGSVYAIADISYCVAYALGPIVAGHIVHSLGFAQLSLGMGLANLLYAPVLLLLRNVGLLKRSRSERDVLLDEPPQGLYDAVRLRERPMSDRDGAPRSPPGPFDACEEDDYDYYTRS

What is called Ki is the equilibrium dissociation constant of an inhibitor or competing ligand from its target.

For this test, the target named is bovine vesicular acetylcholine transporter (VAChT) (Bos taurus, UniProt E1BK36). Description: Radioligand Binding Assay. The conditions noted are these: read-out: Bovine binding Ki; CHO-K1 membranes with recombinant bovine VAChT, [3H]Compound X6 0.3 nM.
Consider `O=C(NCc1ccnc(Cl)c1)N1CC2(CCN(Cc3ccc4cc(F)ccc4n3)CC2)c2c1ccc1sncc21`, for which the Ki stood at 1040 nM.
Regarding `O=C(NCc1ccnc(Cl)c1)N1CC2(CCN(C/C=C/c3ccc(F)cc3)CC2)c2c1ccc1sncc21`, the Ki is 88.6 nM.
With `O=C(NCc1ccnc(Cl)c1)N1CC2(CCN(C/C=C/c3ccc(C(F)(F)F)cn3)CC2)c2c1ccc1sncc21`, the Ki amounted to 535 nM.
